Biological target: human neprilysin (EC 3.4.24.11; NEP) (Homo sapiens (Human), UniProt P08473)
Experiment: In vitro enzyme inhibition assay at human NEP (fluorogenic peptide substrate)
Format: biochemical
Conditions: pKi values at human NEP, recombinant human NEP
Method: In Vitro Assays for the Quantitation of Inhibitor Potencies at Human and Rat NEP, and Human ACE
The inhibitory activities of compounds at human and rat neprilysin (EC 3.4.24.11; NEP) and human angiotensin converting enzyme (ACE) were determined using in vitro assays as described below.
Recombinant human NEP and recombinant human ACE were obtained commercially (R&D Systems, Minneapolis, Minn., catalog numbers 1182-ZN and 929-ZN, respectively). The fluorogenic peptide substrate Mca-D-Arg-Arg-Leu-Dap-(Dnp)-OH (Medeiros et al. (1997) Braz. J. Med. Biol. Res. 30:1157-62; Anaspec, San Jose, Calif.) and Abz-Phe-Arg-Lys(Dnp)-Pro-OH (Araujo et al. (2000) Biochemistry 39:8519-8525; Bachem, Torrance, Calif.) were used in the NEP and ACE assays respectively.
The assays were performed in 384-well white opaque plates at 37° C. using the fluorogenic peptide substrates at a concentration of 10 μM in Assay Buffer (NEP: 50 mM HEPES, pH 7.5, 100 mM NaCl, 0.01% polyethylene glycol sorbitan monolaurate (Tween-20), 10 μM ZnSO4; ACE: 50 mM HEPES, pH 7.5, 100 mM NaCl, 0.01% Tween-20, 1 μM ZnSO4).
Test compounds were assayed over the range of concentrations from 10 μM to pM. […]
Plates were read on a fluorometer with excitation and emission wavelengths set to 320 nm and 405 nm, respectively. […]

Amino acid sequences for entries named in this document (tags omitted). Residues count along the entry.
UniProt P08473, 52-750: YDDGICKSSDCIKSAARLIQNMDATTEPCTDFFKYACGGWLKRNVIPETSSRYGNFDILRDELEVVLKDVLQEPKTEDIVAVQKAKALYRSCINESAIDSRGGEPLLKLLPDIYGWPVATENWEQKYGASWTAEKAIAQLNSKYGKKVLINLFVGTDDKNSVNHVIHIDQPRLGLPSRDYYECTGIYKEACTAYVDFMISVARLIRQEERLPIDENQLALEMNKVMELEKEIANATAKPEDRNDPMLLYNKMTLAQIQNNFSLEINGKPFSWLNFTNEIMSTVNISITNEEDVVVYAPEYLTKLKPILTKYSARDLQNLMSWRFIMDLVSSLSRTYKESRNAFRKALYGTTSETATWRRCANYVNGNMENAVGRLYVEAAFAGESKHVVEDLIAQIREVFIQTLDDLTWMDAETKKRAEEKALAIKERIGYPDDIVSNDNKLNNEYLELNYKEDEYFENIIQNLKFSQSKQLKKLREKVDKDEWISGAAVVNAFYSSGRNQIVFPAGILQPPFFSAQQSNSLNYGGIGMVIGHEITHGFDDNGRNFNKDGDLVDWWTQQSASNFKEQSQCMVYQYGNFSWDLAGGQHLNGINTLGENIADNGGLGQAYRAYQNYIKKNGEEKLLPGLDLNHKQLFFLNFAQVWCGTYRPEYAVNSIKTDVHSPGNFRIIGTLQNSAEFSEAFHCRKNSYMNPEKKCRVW

## (R)-5-Biphenyl-4-yl-2-hydroxy-4-[(1H-tetrazole-5-carbonyl)amino]pentanoic acid [Example 14]
  pKi: 8.0-8.9

From US10759813B2, “Neprilysin inhibitors” (THERAVANCE BIOPHARMA R&D IP, LLC, priority 2010, dated 2020)
